Experimental data: ChEMBL document CHEMBL1145211, “Substituted 5,5'-diphenyl-2-thioxoimidazolidin-4-one as CB1 cannabinoid receptor ligands: synthesis and pharmacological evaluation” (J Med Chem, 2005)
pKi: −log10 of the molar value.

The chains behind the UniProt entries cited, without tags or fusion partners.
UniProt P21554, whole entry: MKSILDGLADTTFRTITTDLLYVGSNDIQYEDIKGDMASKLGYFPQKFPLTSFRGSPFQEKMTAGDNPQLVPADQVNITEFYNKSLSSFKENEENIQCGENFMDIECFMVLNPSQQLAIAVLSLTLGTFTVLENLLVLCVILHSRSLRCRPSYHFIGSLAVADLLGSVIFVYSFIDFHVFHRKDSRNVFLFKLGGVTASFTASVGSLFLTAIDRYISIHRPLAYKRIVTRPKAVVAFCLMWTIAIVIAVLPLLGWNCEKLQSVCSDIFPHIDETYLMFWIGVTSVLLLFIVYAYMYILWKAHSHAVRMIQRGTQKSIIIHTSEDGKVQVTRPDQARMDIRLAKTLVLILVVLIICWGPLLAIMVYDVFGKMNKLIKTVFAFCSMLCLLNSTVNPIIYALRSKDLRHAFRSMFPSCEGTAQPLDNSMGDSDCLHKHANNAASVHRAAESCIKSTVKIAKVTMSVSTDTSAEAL

Biological target: Cannabinoid receptor 1 (Homo sapiens, UniProt P21554)
Test: biochemical
Type: cell-based, CHO

- pKi: 5.76
SMILES: C=CCN1C(=O)NC(c2ccc(I)cc2)(c2ccc(I)cc2)C1=O
